# From PubChem BioAssay AID2100 (National Center for Advancing Translational Sciences (NCATS), 2009)
# Among all 300,000 compounds or so, about 1,200 (0.4%) were called active. The source calls these results inconclusive, neither active nor inactive. Calls follow the shape of the dose curve; as a rule, active = well fitted inhibition curve with a large enough effect; inconclusive = small, poorly fitted or top-dose-only effect, or another doubt; inactive = no such curve, though single readings can be large or run the other way.
# Target: Lysosomal alpha-glucosidase (Homo sapiens) (UniProt P10253)
# Assay: qHTS Assay for Inhibitors and Activators of Human alpha-Glucosidase Cleavage of Glycogen;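 also: the screen sought inhibitors and activators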
# Conditions: recombinant GAA, glycogen substrate, Amplex Red glucose oxidase fluorescence
# Source text: NIH Chemical Genomics Center [NCGC] NIH Molecular Libraries Probe Production Centers Network [MLPCN] MLPCN Grant: R03 MH084841-01 Assay Submitter (PI): Wei Zheng NCGC Assay Overview: Alpha-glucosidase is responsible for the hydrolysis of terminal, non-reducing 1,4-linked alpha-D-glucose residues, which releases alpha-D-glucose. It is a lysosomal hydrolase that is required for the degradation of a small percentage (1-3%) of cellular glycogen in humans. Deficiency of this enzyme results in glycogen-storage disease type II (GSDII), also referred to as Pompe disease, an autosomal recessive disorder. Structurally normal glycogen is accumulated in the lysosomes and cytoplasm in affected patients, primarily in muscle tissues. Excessive glycogen storage within lysosomes may interrupt normal functioning of other organelles and leads to cellular injury. In turn, this leads to enlargement and dysfunction of the entire organ involved (eg: cardiomyopathy and muscle weakness). It has been reported that the improper folding and trafficking of alpha-glucosidase resulting from genetic mutations may account for a significant number of Pompe patients. […] We optimized this alpha-glucosidase assay in 1536-well plate format for identification of novel small molecule inhibitors or activators with structures other than the sugar analogs in order to develop new pharmacological chaperones. […]
# NCGC Assay Protocol Summary: This is an enzyme assay using glycogen from bovine liver (Sigma catalog #: G0885) as the substrate and recombinant human alpha-glucosidase as the enzyme preparation. Upon hydrolysis of the substrate, the glucose product can be detected using the Amplex Red Glucose Oxidase Assay Kit (Invitrogen catalog #: A22189). The product of this reaction can be read with a fluorescence plate reader with an excitation at 573 nm and an emission at 610 nm. […] The AC50 values were determined from concentration-response data modeled with the standard Hill equation. […] (7) Detect the assay plate in a ViewLux plate reader (PerkinElmer) with Ex=573 nm and Em=610nm. […]
# Potency is read from the fitted curve at half-maximal effect.
row,Structure (SMILES),Potency
1,Cc1cc(SC(NC=O)C(Cl)(Cl)Cl)ncn1 (stereo not drawn),inconclusive: 31.4 µM
2,O=C(NC(Sc1ccncn1)C(Cl)(Cl)Cl)c1ccccc1 (stereo not drawn),inconclusive: 39.8 µM
3,O=C(Nc1cc([As](=O)(O)O)ccc1O)c1ccccc1,inconclusive: 1.57 µM
